Measurements: EP4810052A2, “HCRHR2 SELECTIVE POLYPEPTIDES” (Gubra A/S, priority 2023, dated 2026)

Legend:
hCRHR2 = molecular target: T1, hCRHR2 (Homo sapiens, UniProt Q13324); test: HTRF cAMP assay, determination of hCRHR2 potency (peptide libraries 5 conc., purified peptides 11 conc.); format: cell-based
T1 sequence (Q13324 1-411): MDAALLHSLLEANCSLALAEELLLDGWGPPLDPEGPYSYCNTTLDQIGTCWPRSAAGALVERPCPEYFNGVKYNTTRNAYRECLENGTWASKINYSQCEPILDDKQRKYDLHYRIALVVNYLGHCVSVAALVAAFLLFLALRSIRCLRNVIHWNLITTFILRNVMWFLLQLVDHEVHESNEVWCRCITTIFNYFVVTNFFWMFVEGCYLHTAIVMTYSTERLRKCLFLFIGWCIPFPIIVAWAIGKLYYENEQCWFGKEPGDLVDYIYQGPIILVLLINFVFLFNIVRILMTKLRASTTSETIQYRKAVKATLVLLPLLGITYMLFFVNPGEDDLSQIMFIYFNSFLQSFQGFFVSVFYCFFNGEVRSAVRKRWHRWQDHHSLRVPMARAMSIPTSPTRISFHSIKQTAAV
Excerpt: HTRF (CisBio) cAMP assay: The assay technology has thoroughly been described in the CisBio HTRF cAMP assay Kit manual (# 62AM4PEC). Briefly, time resolved fluorescence technic was applied to measure cAMP. This technic is based on a competitive immunoassay using cryptate-labelled anti-cAMP antibody and d2-labeled cAMP. In the absence of cellular cAMP, the anti-cAMP cryptate conjugate may get into proximity to cAMP-d2 conjugate and energy (FRET) can be transferred from cryptate to d2.
CHO-K1 cells stably expressing the human corticotropin-releasing hormone receptor 2 (Eurofins/DiscoverX, Cat #95-0048C2 hCRHR2 stable monoclonal cell lines) were used as cells in suspension, brought to life from frozen cell stocks immediately before assay performance.
Concentration-response evaluation of compounds was performed with 5 concentrations of agonist peptides and EC50 values were calculated by nonlinear regression using sigmoid concentration-response with variable slope.
Concentration-response evaluation of compounds was performed with 11 concentrations of agonist peptides and EC50 values were calculated by nonlinear regression using sigmoid concentration-response with variable slope.

[1] = Thioflavin T fibril formation assay of purified peptides; format: physicochemical; settings: pH 7.5, ThT assay
Method: Thioflavin T fibril formation assay: Peptides were dissolved as 267 µM in 50 mM phosphate buffer pH 7.5 for 2 h at room temperature on a rocking table. The samples were then divided into three replicates of 80 µl/well and mixed with 2 µl/well Thioflavin T (ThT)to a final concentration of 4 µM ThT in a black 384 well microplate with a clear bottom (Greiner #781096). The plate was inserted in a CLARIOstar Plus microplate reader (BMG Labtech) and fibril formation was measured as an increase in fluorescence emission at 480 nm (excitation at 450 nm) during 96 h at 40°C with cycles of 5 min rest and 5 min linearshaking at700 rpm.
Compounds were dissolved to 200 µM (ca 1.0 mg/ml) in 50 mM phosphate buffer with preparation and ThT assay performed as described in the "General procedure for determination of fibril formation of peptides." above. Furthermore, samples were adjusted to pH values as indicated below. Additional co-formulations of compounds with semaglutide were prepared by dissolving compounds to 200 µM in commercially available semaglutide drug product (Ozempic®); these co-formulations were adjusted to pH 7.4.

CC[C@H](C)[C@H](N)C(=O)N[C@H](C(=O)N[C@@H](CC(C)C)C(=O)N[C@@H](CO)C(=O)N[C@@H](CC(C)C)C(=O)N[C@@H](CC(=O)O)C(=O)N[C@H](C(=O)N1CCC[C@H]1C(=O)N[C@H](C(=O)NCC(=O)N[C@@H](CC(C)C)C(=O)N[C@@H](CC(C)C)C(=O)N[C@@H](CCC(N)=O)C(=O)N[C@H](C(=O)N[C@@H](CC(C)C)C(=O)N[C@@H](CC(C)C)C(=O)N[C@@H](CCC(=O)O)C(=O)N[C@@H](CCC(N)=O)C(=O)N[C@@H](C)C(=O)N[C@@H](CCCNC(=N)N)C(=O)N[C@@H](C)C(=O)N[C@@H](CCCNC(=N)N)C(=O)N[C@@H](C)C(=O)N[C@@H](C)C(=O)N[C@@H](CCCNC(=N)N)C(=O)N[C@@H](CCC(=O)O)C(=O)N[C@@H](CCC(N)=O)C(=O)N[C@@H](C)C(=O)N[C@H](C(=O)N[C@H](C(=O)N[C@@H](CC(N)=O)C(=O)N[C@@H](C)C(=O)N[C@@H](CCCNC(=N)N)C(=O)N[C@H](C(=O)N[C@@H](CC(C)C)C(=O)N[C@@H](C)C(=O)N[C@@H](CCCNC(=N)N)C(=O)N[C@H](C(N)=O)C(C)C)[C@@H](C)CC)[C@@H](C)O)[C@@H](C)O)[C@@H](C)CC)[C@@H](C)CC)C(C)C)C(C)C [SEQ ID NO: 1, reference compound]
Selectivity ratio (hCRHR1/ hCRHR2) (hCRHR2; hCRHR1-EC50/hCRHR2-EC50): 917 | EC50 (hCRHR2; purified peptides, CHO-K1 cells stably expressing hCRHR2, cAMP HTRF): 0.24 nM | Fibrillation (pH 7.5) [1]: No
